Literature values as cited in patent publication US7648982B2 (priority 2003, dated 2010).

Settings: in vivo

**Q.** With `CN1CC[C@]23c4c5ccc(O)c4O[C@H]2[C@@H](O)C=C[C@H]3[C@H]1C5` [morphine] as the molecule, how does the “concentration at the site of effect considered sub-therapeutic” value read?
**A.** The value was < 37.5 ng/mL.
